The source of these data is PubChem BioAssay (Tox21).

Sequences of proteins named here, by UniProt entry; tags and fusion partners are left off. A change or cut given only in a name is not applied to a line headed by its entry.
UniProt Q96RI1: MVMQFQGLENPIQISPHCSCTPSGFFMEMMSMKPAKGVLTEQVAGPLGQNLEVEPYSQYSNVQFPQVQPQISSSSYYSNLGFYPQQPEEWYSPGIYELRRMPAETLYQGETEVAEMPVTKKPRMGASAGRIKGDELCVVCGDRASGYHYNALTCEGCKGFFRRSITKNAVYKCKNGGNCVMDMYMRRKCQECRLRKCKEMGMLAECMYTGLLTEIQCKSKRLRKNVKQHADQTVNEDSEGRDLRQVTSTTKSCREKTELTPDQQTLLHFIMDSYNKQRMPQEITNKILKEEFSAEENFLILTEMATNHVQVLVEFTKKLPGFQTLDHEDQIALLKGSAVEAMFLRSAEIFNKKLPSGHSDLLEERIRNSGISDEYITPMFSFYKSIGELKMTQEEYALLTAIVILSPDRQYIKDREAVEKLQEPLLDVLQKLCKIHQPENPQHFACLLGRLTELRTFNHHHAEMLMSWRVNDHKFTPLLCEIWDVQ
UniProt P10275: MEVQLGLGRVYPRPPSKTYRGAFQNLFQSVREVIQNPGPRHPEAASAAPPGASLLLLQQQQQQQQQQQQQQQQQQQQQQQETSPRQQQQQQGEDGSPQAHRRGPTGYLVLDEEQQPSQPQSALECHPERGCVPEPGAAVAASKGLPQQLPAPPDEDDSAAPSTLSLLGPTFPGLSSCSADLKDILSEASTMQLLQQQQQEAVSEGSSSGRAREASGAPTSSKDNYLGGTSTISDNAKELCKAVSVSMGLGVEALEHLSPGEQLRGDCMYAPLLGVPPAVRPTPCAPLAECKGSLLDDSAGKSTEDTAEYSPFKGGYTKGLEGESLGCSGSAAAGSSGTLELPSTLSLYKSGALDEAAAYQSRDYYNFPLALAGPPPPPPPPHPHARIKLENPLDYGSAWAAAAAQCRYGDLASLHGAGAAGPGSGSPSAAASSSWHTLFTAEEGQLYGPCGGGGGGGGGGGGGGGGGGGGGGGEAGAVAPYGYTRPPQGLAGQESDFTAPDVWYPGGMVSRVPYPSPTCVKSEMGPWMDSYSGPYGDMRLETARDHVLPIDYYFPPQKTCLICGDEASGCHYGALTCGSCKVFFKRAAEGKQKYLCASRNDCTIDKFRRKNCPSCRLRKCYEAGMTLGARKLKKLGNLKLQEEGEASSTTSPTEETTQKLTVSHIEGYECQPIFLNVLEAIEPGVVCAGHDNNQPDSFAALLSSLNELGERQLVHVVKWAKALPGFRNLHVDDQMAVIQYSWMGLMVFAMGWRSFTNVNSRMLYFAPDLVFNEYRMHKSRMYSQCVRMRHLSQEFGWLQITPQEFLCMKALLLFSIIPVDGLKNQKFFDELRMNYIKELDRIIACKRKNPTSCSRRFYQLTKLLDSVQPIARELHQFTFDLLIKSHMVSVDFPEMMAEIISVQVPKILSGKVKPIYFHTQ
UniProt Q92731, whole entry, looked up: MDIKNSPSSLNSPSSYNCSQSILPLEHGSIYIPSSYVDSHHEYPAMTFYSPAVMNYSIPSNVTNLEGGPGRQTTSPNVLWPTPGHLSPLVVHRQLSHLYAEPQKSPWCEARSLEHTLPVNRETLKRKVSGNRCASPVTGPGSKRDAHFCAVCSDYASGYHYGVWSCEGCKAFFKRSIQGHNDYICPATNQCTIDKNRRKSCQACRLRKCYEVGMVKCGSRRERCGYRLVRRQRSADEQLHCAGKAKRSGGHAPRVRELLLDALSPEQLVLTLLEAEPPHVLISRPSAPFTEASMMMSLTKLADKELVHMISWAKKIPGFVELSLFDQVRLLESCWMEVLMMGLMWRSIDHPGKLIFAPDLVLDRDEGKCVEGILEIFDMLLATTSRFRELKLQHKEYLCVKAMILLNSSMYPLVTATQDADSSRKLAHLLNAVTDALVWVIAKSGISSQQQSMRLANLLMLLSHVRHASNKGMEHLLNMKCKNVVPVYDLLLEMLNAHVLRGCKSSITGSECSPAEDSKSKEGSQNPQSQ
UniProt P03372, whole entry, looked up: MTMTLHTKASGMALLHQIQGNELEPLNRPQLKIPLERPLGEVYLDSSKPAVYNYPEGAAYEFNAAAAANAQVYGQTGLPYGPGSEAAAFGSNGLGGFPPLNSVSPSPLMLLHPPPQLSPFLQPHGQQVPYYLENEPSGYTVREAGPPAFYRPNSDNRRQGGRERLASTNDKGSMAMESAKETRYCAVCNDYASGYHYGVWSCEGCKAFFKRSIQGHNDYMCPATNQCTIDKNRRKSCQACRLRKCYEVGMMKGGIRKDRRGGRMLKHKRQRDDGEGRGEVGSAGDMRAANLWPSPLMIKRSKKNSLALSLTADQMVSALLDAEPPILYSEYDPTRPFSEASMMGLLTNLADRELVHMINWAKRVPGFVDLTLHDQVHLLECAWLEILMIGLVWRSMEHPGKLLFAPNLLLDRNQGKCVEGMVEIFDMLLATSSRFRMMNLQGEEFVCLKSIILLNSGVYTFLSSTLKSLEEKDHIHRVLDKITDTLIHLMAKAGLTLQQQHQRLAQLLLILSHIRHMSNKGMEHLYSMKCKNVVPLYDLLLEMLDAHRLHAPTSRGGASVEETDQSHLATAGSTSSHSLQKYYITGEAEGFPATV
UniProt P34981: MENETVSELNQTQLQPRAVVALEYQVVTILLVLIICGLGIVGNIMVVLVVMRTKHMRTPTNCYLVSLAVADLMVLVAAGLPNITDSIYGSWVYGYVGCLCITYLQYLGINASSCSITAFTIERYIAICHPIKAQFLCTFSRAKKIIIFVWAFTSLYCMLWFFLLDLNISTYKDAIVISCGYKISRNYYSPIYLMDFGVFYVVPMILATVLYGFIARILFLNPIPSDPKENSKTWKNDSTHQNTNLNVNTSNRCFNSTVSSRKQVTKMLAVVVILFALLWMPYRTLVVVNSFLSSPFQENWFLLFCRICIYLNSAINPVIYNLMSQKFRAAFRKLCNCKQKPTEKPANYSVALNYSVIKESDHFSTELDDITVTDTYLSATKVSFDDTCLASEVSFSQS

Where “and” joins values, the source holds several entries; their conditions need not be identical. Identical values can stand only once. For some of these results: Most of the hits are listed elsewhere, so they are rarer here than in the full data. The list shows a part of the results, in another mix than the full data. Calls of active or inactive are those of the source. Unless noted, calls follow the shape of the dose curve; as a rule, active = well fitted curve in the direction sought with a large enough effect in the repeat runs; inconclusive = weak or mixed curves; inactive = no such curve, though single readings can be large; an effect the other way counts as inactive or inconclusive.

Experiment [1] can be described thus: qHTS assay to identify small molecule antagonists of the retinoic acid receptor (RAR) signaling pathway (AID 1159552; also: nearly all actives have a fitted effect of over 50% in size; also: potency is read from the fitted curve at half-maximal effect). An outline of the steps: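 C3RL4 RARE-luc cells, overnight plating; retinol 1 uM final added right after compound; 6 hr 37 C; luciferase read at 30 min RT.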
(qHTS replaces the single test concentration by a dilution series.)

The target in experiment [2] is Bile acid receptor (Homo sapiens) (UniProt Q96RI1). Briefly: qHTS assay to identify small molecule antagonists of the farnesoid-X-receptor (FXR) signaling pathway (AID 743217; active = well fitted inhibition curve with a large enough effect in the signal ratio in the repeat runs, not every such curve was filed as active; inconclusive = weak or mixed curves, or effect the other way; inactive = no such curve, though single readings can be large or run the other way; the % refers to the signal ratio; also: % is scaled to controls: 0 for no effect and ±100 for the full control effect). The settings on record: HEK293T FXR-UAS-bla, beta-lactamase ratio, CDCA-stimulated, 16 h. An outline of the steps:
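HEK 293T FXR-UAS-bla, 5000 cells/well; compound + CDCA 50 uM final; 16 h, 37 °C; B/G FRET substrate 2 h RT; fluorescence.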

Experiment [3] shares this target. Briefly: qHTS assay to identify small molecule agonists of the farnesoid-X-receptor (FXR) signaling pathway (AID 743220; active = well fitted activation curve with a large enough effect in the signal ratio in the repeat runs, not every such curve was filed as active; inconclusive = weak or mixed curves, or effect the other way; the % refers to the signal ratio; also: % is scaled to controls: 0 for no effect and ±100 for the full control effect). Particulars: HEK293T FXR-UAS-bla, beta-lactamase FRET ratio, 16 h.
Experiment [4] is described as follows: qHTS assay to identify small molecule agonists of the NFkB signaling pathway (AID 1159509; active = well fitted curve in the direction sought with a large enough effect in the signal ratio in the repeat runs, not every such curve was filed as active; inconclusive = weak or mixed curves, or a change in a side signal; inactive = no such curve, though single readings can be large or run the other way; the % refers to the signal ratio; also: % is scaled to controls: 0 for no effect and ±100 for the full control effect). Particulars: NFkB-bla ME-180 cells, beta-lactamase FRET ratio, 5 h; at 61 µM (top of the series) unless noted. An outline of the steps:
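NFkB-bla ME-180 cells with a beta-lactamase reporter under an NF-kB response element were plated overnight, treated with compounds in DMSO for 5 hr at 37 C, then loaded with FRET substrate for 1.5 hr at room temperature.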

In experiment [5] the target is Androgen receptor (Homo sapiens) (UniProt P10275). Briefly: qHTS assay to identify small molecule antagonists of the androgen receptor (AR) signaling pathway (AID 743035; active = well fitted inhibition curve with a large enough effect in the signal ratio in the repeat runs, not every such curve was filed as active; inconclusive = weak or mixed curves, or effect the other way; inactive = no such curve, though single readings can be large or run the other way; the % refers to the signal ratio; also: % is scaled to controls: 0 for no effect and ±100 for the full control effect).
The target is the same in experiment [6]. Briefly: qHTS assay to identify small molecule agonists of the androgen receptor (AR) signaling pathway using the MDA cell line (AID 743040; also: % is scaled to controls: 0 for no effect and ±100 for the full control effect; nearly all actives have a fitted effect of over 20% in size). Particulars: MDA-kb2 AR-luc cells, MMTV luciferase, 16 h; at 70.3 µM (top of the series); hits give high values.
Experiment [7] shares this target. Briefly: qHTS assay to identify small molecule antagonists of the androgen receptor (AR) signaling pathway using the MDA cell line (AID 743042; also: nearly all actives have a fitted effect of over 55% in size; also: potency is read from the fitted curve at half-maximal effect).
For experiment [8] the target is unchanged. Briefly: qHTS assay to identify small molecule antagonists of the androgen receptor (AR) signaling pathway using the MDA cell line in the presence of 0.5 nM R1881 (AID 1259243). Also: nearly all actives have a fitted effect of over 50% in size. Also: potency is read from the fitted curve at half-maximal effect.
For experiment [9] the target is unchanged. Briefly: qHTS assay to identify small molecule agonists of the androgen receptor (AR) signaling pathway in the presence of an antagonist (AID 1259381; calls by dose curve; also: % is scaled to controls: 0 for no effect and ±100 for the full control effect; nearly all actives have a fitted effect of over 15% in size).
The target of experiment [10] is Estrogen receptor beta (Homo sapiens) (UniProt Q92731). Briefly: qHTS assay to identify small molecule antagonists of the estrogen receptor beta (ER-beta) signaling pathway (AID 1259378; active = well fitted inhibition curve with a large enough effect in the signal ratio in the repeat runs, not every such curve was filed as active; inconclusive = weak or mixed curves, or effect the other way; inactive = no such curve, though single readings can be large or run the other way; the % refers to the signal ratio; also: % is scaled to controls: 0 for no effect and ±100 for the full control effect). In a few lines:
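ER-beta-UAS-bla HEK293T (GripTite) cells in 2% charcoal-stripped FBS medium were preincubated 6 hr at 37C, dosed with compound, then stimulated with 1 nM E2 (final) for 16 hr; beta-lactamase reporter read by B/G FRET fluorescence after 2 hr substrate loading.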

Experiment [11] concerns the target Estrogen receptor (Homo sapiens) (UniProt P03372). Briefly: qHTS assay to identify small molecule antagonists of the estrogen receptor alpha (ER-alpha) signaling pathway (AID 743069; active = well fitted curve in the direction sought with a large enough effect in the signal ratio in the repeat runs, not every such curve was filed as active; inconclusive = weak or mixed curves, or effect the other way; inactive = no such curve, though single readings can be large or run the other way; the % refers to the signal ratio; also: % is scaled to controls: 0 for no effect and ±100 for the full control effect).
The target is the same in experiment [12]. Briefly: qHTS assay to identify small molecule agonists of the estrogen receptor alpha (ER-alpha) signaling pathway (AID 743075; calls by dose curve; also: potency is read from the fitted curve at half-maximal effect).
The target is the same in experiment [13]. Briefly: qHTS assay to identify small molecule agonists of the estrogen receptor alpha (ER-alpha) signaling pathway using the BG1 cell line (AID 743079). Also: potency is read from the fitted curve at half-maximal effect; nearly all actives have a fitted effect of over 20% in size.
For experiment [14] the target is unchanged. Briefly: qHTS assay to identify small molecule antagonists of the estrogen receptor alpha (ER-alpha) signaling pathway using the BG1 cell line in the presence of 0.1 nM 17-beta-estradiol (AID 1259244). Also: % is scaled to controls: 0 for no effect and ±100 for the full control effect; nearly all actives have a fitted effect of over 50% in size. Particulars: VM7Luc4E2 (BG1) ERE-luciferase, antagonist mode, 0.1 nM E2, 22 h.
The target is the same in experiment [15]. Briefly: qHTS assay to identify small molecule agonists of the estrogen receptor alpha (ER-alpha) signaling pathway in the presence of an antagonist (AID 1259383; calls by dose curve; also: top concentration of the series differs between compounds; % is scaled to controls: 0 for no effect and ±100 for the full control effect; nearly all actives have a fitted effect of over 15% in size).
The target of experiment [16] is Thyrotropin-releasing hormone receptor (Homo sapiens) (UniProt P34981). Briefly: qHTS assay to identify small molecule antagonists of the thyrotropin-releasing hormone receptor (TRHR) signaling pathway (AID 1346877; active = well fitted inhibition curve with a large enough effect in the repeat runs, not every such curve was filed as active; inconclusive = weak or mixed curves; also: % is scaled to controls: 0 for no effect and ±100 for the full control effect). Particulars: TRHR-HEK293, TRH-induced calcium fluorescence, antagonist mode; at 23.6 µM (top of the series).

On to `Cc1cccc(S(=O)(=O)O)c1C`, for which, in experiment [1], the Potency result is “inactive”.
The same measure, in the same setting: as for `CNC[C@H](O)c1ccc(O)c(O)c1`, the entry is “inactive”.
With `COCCOc1cc2cc(C(=O)NC3CCN(C(C)C)CC3)n(CC(=O)Nc3ccc(Cl)cn3)c2cn1`, the activity change, negative = inhibition in experiment [2] (at 62.6 µM (top of the series)) was inactive: -9.33%. In addition, the values for the activation in [3] (at 62.6 µM (top of the series)) and in experiment [4] were inactive: 0.821% and inactive: -0.381%, respectively. The Potency entry in [1] was “inactive”.
As to `O=c1c(O)c(-c2ccc(O)cc2O)oc2cc(O)cc(O)c12`, the Potency result in experiment [1] was “inactive”.
As for `CCOc1ccc2nc3cc(N)ccc3c(N)c2c1`, the Potency result in experiment [1] was “inactive”.
In the case of `C[N+]1(C)CCC(OC(=O)C(O)(c2ccccc2)C2CCCC2)C1` (stereo not drawn), the Potency entry in experiment [5], in experiment [7], in [8] and in experiment [9] was “inactive” throughout. Moreover, the activity change in [6] was inactive: 0.083% and inactive: 0.522%. For the same compound, the activation in [4] was inactive: -0.223%.
For the compound `C=CC[N+]1([C@H]2C[C@H]3[C@@H]4CC[C@H]5C[C@H](OC(C)=O)[C@@H](N6CCCCC6)C[C@]5(C)[C@H]4CC[C@]3(C)[C@H]2OC(=O)CC)CCCCC1`, in experiment [4], the activation was inactive: -0.195%. Also, the Potency result in [1] and in experiment [10] was “inactive” throughout.
As for `C[C@H]1NCc2cc(-c3ccc4c(=O)c(C(=O)O)cn(C5CC5)c4c3OC(F)F)ccc21`, the Potency entry in experiment [1] was “inactive”.
Still for that read-out and setting: next, `OC[C@@H](O)[C@@H](O[C@@H]1O[C@H](CO)[C@H](O)[C@H](O)[C@H]1O)[C@H](O)[C@@H](O)CO`: “inactive”.
Consider `CC(C)NNC(=O)c1ccncc1`, for which the Potency result in experiment [11], in [10] and in [15] was “inactive” in each case. In addition, the Potency in experiment [12] was active: 16.9 µM [inconclusive]; in experiment [13], active: 11.9 µM. Further, the activity change, negative = inhibition in experiment [2] (at 62.6 µM (top of the series)) is inactive: 5.02%; in [14] (at 42.5 µM (top of the series)), inactive: 8.94%. Also, the activation is inactive: -1.84% in experiment [3] (at 62.6 µM (top of the series)) and inactive: 0.121% in experiment [4].
As for `COCCc1ccc(OCC(O)CNC(C)C)cc1` (stereo not drawn), the Potency entry in experiment [1] is “inactive”.
For `CC(NN)c1ccccc1` (stereo not drawn), the Potency entry in experiment [11] and in experiment [12] was “inactive” each time. Moreover, the results for the activity change, negative = inhibition in experiment [2] (at 29.1 µM (top of the series)) and in [14] (at 19 µM (top of the series)) were inactive: 0.281% and inactive: 6.02%, respectively. Moreover, the activation in experiment [3] (at 29.1 µM (top of the series)) is inactive: 1.77%; in experiment [4] it was inactive: -0.304% [at 28.5 µM]; in experiment [15], inactive: 1.58% [at 19 µM].
Consider `CCCCCCCC[N+](CCCCCCCC)(CCCCCCCC)CCCCCCCC`, for which the activity change in [6] is inactive: -10.6%. Also, the results for the Potency in [7], in experiment [1] and in [8] were active: 1.53 µM, active: 19.3 µM and active: 1.53 µM, respectively. For the same compound, the Potency result in [9] is “inactive”.
Consider `CN1CCCN=C1/C=C/c1cccs1`, for which the Potency result in experiment [1] is “inactive”. In experiment [16], the activity, negative = inhibition was inactive: -10.6%.
